The text below walks through data of patent US4396543A.

This series in a line: toxicity test, LD50. Conditions: mouse, in vivo, iv; administered intravenously; read-out: LD50 (mg/kg) in Mice.
Regarding `CCCCCCCCCCCCC(=O)N[C@@H](Cc1ccccc1)C(=O)N[C@@H](Cc1c[nH]c2ccccc12)C(=O)N[C@H](CC(N)=O)C(=O)N[C@@H](CC(=O)O)C(=O)N[C@@H]1C(=O)NCC(=O)N[C@@H](CCCN)C(=O)N[C@@H](CC(=O)O)C(=O)N[C@H](C)C(=O)N[C@@H](CC(=O)O)C(=O)NCC(=O)N[C@H](CO)C(=O)N[C@@H]([C@H](C)CC(=O)O)C(=O)N[C@@H](CC(=O)c2ccccc2N)C(=O)O[C@@H]1C` [Compound 21], the LD50 was determined as 225 mg/kg.
For `CCCCCCCCCCC(=O)N[C@@H](Cc1ccccc1)C(=O)NCCC[C@@H]1NC(=O)CNC(=O)[C@@H](NC(=O)[C@H](CC(=O)O)NC(=O)[C@@H](CC(N)=O)NC(=O)[C@@H](N)Cc2c[nH]c3ccccc23)[C@@H](C)OC(=O)[C@H](CC(=O)c2ccccc2N)NC(=O)[C@H]([C@H](C)CC(=O)O)NC(=O)[C@@H](CO)NC(=O)CNC(=O)[C@H](CC(=O)O)NC(=O)[C@@H](C)NC(=O)[C@H](CC(=O)O)NC1=O` [Compound 26], the LD50 turned out to be 225 mg/kg.
On to `CCCCCCCCCCCCCC(=O)N[C@@H](Cc1ccccc1)C(=O)N[C@@H](Cc1c[nH]c2ccccc12)C(=O)N[C@H](CC(N)=O)C(=O)N[C@@H](CC(=O)O)C(=O)N[C@@H]1C(=O)NCC(=O)N[C@@H](CCCN)C(=O)N[C@@H](CC(=O)O)C(=O)N[C@H](C)C(=O)N[C@@H](CC(=O)O)C(=O)NCC(=O)N[C@H](CO)C(=O)N[C@@H]([C@H](C)CC(=O)O)C(=O)N[C@@H](CC(=O)c2ccccc2N)C(=O)O[C@@H]1C` [Compound 22], for which the LD50 was found to be 225 mg/kg.
